Assays:
[1] = target: T1, isolated nNOS from rat cerebella (Rattus norvegicus, UniProt P29476); assay: Citrulline assay according to Bredt and Snyder (1990), separation by column chromatography; assay type: biochemical
Excerpt: On completion of the reaction the enzyme mixtures are passed over separate cation exchange columns. Elution of the [^3H]L-citrulline and determination of the eluates then takes place on a β-counter. The disadvantage of this method is that column chromatography has to take place separately for each enzyme mixture (e.g. 96 chromatography columns are needed per 96 well microtiter plate).
The precipitate is discarded.
The separation was effected by means of column chromatography.

[2] = target: T1, isolated nNOS from rat cerebella; assay: Arginine assay according to the invention (HTS NOS assay, cation exchanger filter MTP)

Question: With `CC(=N)NCc1cccc(CN)c1` [1400 W, N-[3-(aminomethyl)benzyl]acetamidine] as the compound, how does the IC50 [1] read?
Answer: Its IC50 is 16.7 µM.

Question: And the IC50 [2]?
Answer: Its IC50 is 6.98 µM.
